Consider two compounds from ChEMBL document CHEMBL1127657, “Haloperidol-based irreversible inhibitors of the HIV-1 and HIV-2 proteases” (J Med Chem, 1994).

Broadly, the IC50 is the concentration needed to halve the response being measured.

For this experiment, the target named is Human immunodeficiency virus type 1 protease (Human immunodeficiency virus 1, UniProt Q72874). Kind of experiment: In vitro inhibition of recombinant HIV-1 protease expressed in Escherichia coli strain D1210.

Regarding `O=C(CCCN1CCC(O)(c2ccc(Cl)cc2)CC1)c1ccc(F)cc1` [HALOPERIDOL], the IC50 amounted to 125 µM.

For `O=C(/C=C(/CN1CCC(O)(c2ccc(Cl)cc2)CC1)SCCO)c1ccccc1`, the IC50 turned out to be 140 µM.
